# scFv variants of Ab-14 (heavy chain) against a SARS-CoV-2 spike peptide

Data: MIT Lincoln Laboratory AlphaSeq set, Li et al. 2023, doi:10.1038/s41467-023-39022-2, as distributed in FLAb.

Target peptide (SARS-CoV-2 spike, HR2 region): PDVDLGDISGINAS

Each scFv is VH, a (GGGGS)3 linker, VL, as in the parent Ab-14, and differs from it in the CDRs of the heavy chain only.
VH: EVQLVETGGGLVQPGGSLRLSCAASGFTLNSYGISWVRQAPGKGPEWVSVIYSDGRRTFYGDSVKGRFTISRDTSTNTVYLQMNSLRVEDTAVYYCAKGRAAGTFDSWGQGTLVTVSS
VL: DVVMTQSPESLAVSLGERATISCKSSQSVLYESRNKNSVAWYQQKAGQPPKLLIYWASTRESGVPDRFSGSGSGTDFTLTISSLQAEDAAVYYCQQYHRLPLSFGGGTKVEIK

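The variants were designed computationally from a first round of random CDR variants and then made and measured. Several design methods are mixed in this list. The scFvs were displayed on barcoded MATa yeast, the peptide on MATalpha yeast. Binding brings cells together so that they mate, and sequencing counts the barcode pairs among the diploids. Scores were corrected for input abundance and mapped to Kd with protein pairs of known affinity run in the same pool. Each pool was mated in six replicate cultures.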

Each variant is given by its three heavy chain CDRs, as the data file delimits them; those of the parent are GFTLNSYGIS, VIYSDGRRTFYGDSVK, GRAAGTFDS. The Kd shown is the geometric mean over detected replicates; a lower Kd is a better binder. "no signal" marks a missing value. The strain was present, yet no cells mated with the target were sequenced in any replicate, which points to weak or no binding. As a blank, each scFv also met three strains without target: over all heavy chain designs, 1% of these pairings were detected, typically at 120 nM and seldom below 7.0 nM. For each scFv, signals with the empty controls are counted beside the result. The range of this assay differs from that of the first round, and the authors advise against merging the two. The authors' rule: three or more of the six replicates give a measured affinity, fewer mean a poor binder.

CDR-H1	CDR-H2	CDR-H3	Kd (apparent)	replicates with signal	control signals
GFDLNSYGIS	VIYSDGRRTFYGDSVK	GREAGTFDF	1.7 nM	6 of 6	0 of 18
GFSLDEYGIS	VIYADGLRTQYHNKVK	GLQGFIFDQ	no signal	0 of 6	0 of 18
GFDLDEYGIS	VIYADGKRTAYSDSVK	GEVAGTFDT	130 pM	6 of 6	0 of 18
GFDLNEYGIS	VIYADGRRTQYADSVK	GEAAGTFDS	820 pM	6 of 6	0 of 18
GFGINEYGIS	VIYADGMRRSYADSVK	GAESGYMVV	no signal	0 of 6	0 of 18
GFDLDEYGIS	VIYADGMRTFYADSVK	GELAGTFFS	440 pM	6 of 6	0 of 18
GFDLNEYGIS	VIYADGRRTYYADSVK	GTNAGTFDQ	170 pM	6 of 6	0 of 18
GFTLNQYGIS	VIYSDGQRTFYSDSVK	GRQAGTFDS	1.9 nM	6 of 6	0 of 18
YFDLNSYGIS	VIYSDGRRTFYIDSVK	GQEAGTFDS	43 nM	6 of 6	1 of 18
GFDLMEYGIS	VIYADGMRQYYANKFK	GEISDSGLI	no signal	0 of 6	0 of 18
GFDLQEYGIS	VIYADGVREAYTENVK	GNSGGRDML	no signal	0 of 6	0 of 18
GFDLNEYGIS	VIYADGVRTAYADSVK	GANAGTFDL	250 pM	6 of 6	0 of 18
GFDLNEYGIS	VIYADGMRTAYADDVK	GEVAGTFDT	220 pM	6 of 6	0 of 18
GFQLNEYGIS	VIYADGTRTAYADSVK	GAYDTVAVL	no signal	0 of 6	1 of 18
GFDLNEYGIS	VIYADGQRTAYDDSVK	GQVAGTFDS	200 pM	6 of 6	1 of 18
GFWLNDYGIS	VIYSDGRRTFYGDSVK	GRNAGTFDS	38 nM	4 of 6	0 of 18
GFELNSYGIS	VIYSDGRRTFYIDSVK	GRTAGTFDT	5.6 nM	6 of 6	0 of 18
GFDLNEYGIS	VIYADGRRTVYADSVK	GENAGTFDV	1.8 nM	6 of 6	1 of 18
GFTLNSYGIS	VIYSDGRRTFYGDSVK	GYAAVTFDS	no signal	0 of 6	0 of 18
GFTLNSYGIS	VIYSDGRRTFYGDSVK	GRHAGTWDS	75 nM	1 of 6	0 of 18
GFTLNSYGIS	VIYSDGRRTFYDDSVK	GLIAGTFDS	29 nM	3 of 6	0 of 18
GFSLDEYGIS	VIYADGVRAHYSDQVK	GVKVGNVIM	no signal	0 of 6	0 of 18
GFVLNEYGIS	VIYSDGRRTFYGDSVK	GRAAGTFIS	no signal	0 of 6	0 of 18
GFDLNEYGIS	VIYADGVRKAYADSVK	GNTAGTFDV	1.8 nM	6 of 6	0 of 18
GFDLNSYGIS	VIYSDGRRTFYGDSVK	GRTADTFDS	no signal	0 of 6	0 of 18
GFDLNEYGIS	VIYADGQRTAYTDSVK	GENAGTFDI	560 pM	6 of 6	0 of 18

Continued, with the values leading:

Kd (apparent)	replicates with signal	control signals	CDR-H1	CDR-H2	CDR-H3
1.2 nM	6 of 6	0 of 18	GFDLNEYGIS	VIYADGMRTAYADSVK	GTVAGTFDI
310 pM	6 of 6	0 of 18	GFDLNEYGIS	VIYADGVRTAYADSVK	GANAGTFDV
880 pM	6 of 6	0 of 18	GFGLNEYGIS	VIYSDGRRTFYTDSVK	GQAAGTFDS
460 pM	6 of 6	0 of 18	GFDLNEYGIS	VIYADGRRTAYADSVK	GHVAGTFVS
6.8 nM	6 of 6	0 of 18	GFTLNEYGIS	VIYSDGRRTFYDDDVK	GRAAGTFDQ
510 pM	6 of 6	0 of 18	GFDLDEYGIS	VIYADGMRTAYTDSVK	GEVAGTFDQ
220 pM	6 of 6	0 of 18	GFDLNEYGIS	VIYADGRRKAYADSVK	GNVAGTFDV
35 nM	5 of 6	0 of 18	GFELNSYGIS	VIYSDGRRTFYGDSVK	GRTYGTFPQ
3.1 nM	6 of 6	1 of 18	GFSLNEYGIS	VIYSDGRRTWYGDSVK	GRSAGTFDS
190 nM	2 of 6	0 of 18	GFNLNEYGIS	VIYADGNRNAYADSVK	GLHANFFDI
86 pM	6 of 6	0 of 18	GFDLNEYGIS	VIYADGQRTAYVDSVK	GQNAGTFDV
850 pM	6 of 6	0 of 18	GFELNSYGIS	VIYSDGRRTFYGDSVK	GGVAGTFDT
250 pM	6 of 6	0 of 18	GFDLNEYGIS	VIYADGRRTFYSDSVK	GELAGTFDV
460 pM	6 of 6	1 of 18	GFDLDEYGIS	VIYADGMRTAYIDSVK	GQNAGTFDV
980 pM	6 of 6	0 of 18	GFDLNSYGIS	VIYSDGRRTFYGDQVK	GITAGTFDS
6.6 nM	6 of 6	0 of 18	GFDLNSYGIS	VIYSDGRRTFYGDSVK	GQAAGTFDS
no signal	0 of 6	0 of 18	GFDLNEYGIS	VIYADGRRTFYADSVK	GEAGGTFDE
64 nM	5 of 6	0 of 18	GFDLNEYGIS	VIYADGVRTFYSDSVK	GEAGGTFDA
1.7 nM	6 of 6	0 of 18	GFNLNSYGIS	VIYADGRRTFYHDSVK	GRAAGTFDS
no signal	0 of 6	0 of 18	GEDLMEYGIS	VIYADGERKSYVESVK	GGVSVTFST
240 nM	4 of 6	0 of 18	GFNLNSYGIS	VIYSDGRRTFYDDSVK	GQVAGKFDS
no signal	0 of 6	0 of 18	GFTLNSYGIS	VIYSDGRRTFYDDSVK	GREALTFDT
6.4 nM	5 of 6	0 of 18	GFDLNEYGIS	VIYADGQRTFYTDSVK	GQLAGTFDV
120 nM	4 of 6	0 of 18	GFNLNSYGIS	VIYSDGRRTFYGDSVK	GHQAGTFDS
no signal	0 of 6	0 of 18	GFTLNEYGIS	VIYSDGRRTFYKDSVK	GRAVGTFDS
4.1 nM	6 of 6	0 of 18	GKTLNSYGIS	VIYSDGRRTFYSDSVK	GQTAGTFDS
12 nM	1 of 6	0 of 18	GFTLNSYGIS	VIYSDGRRTFIGDSVK	GHAAGTFDS

The 4 strongest on average among those seen in every replicate, once more:

| CDR-H1 | CDR-H2 | CDR-H3 | Kd (apparent) | replicates with signal | control signals |
|---|---|---|---|---|---|
| GFDLNEYGIS | VIYADGQRTAYVDSVK | GQNAGTFDV | 86 pM | 6 of 6 | 0 of 18 |
| GFDLDEYGIS | VIYADGKRTAYSDSVK | GEVAGTFDT | 130 pM | 6 of 6 | 0 of 18 |
| GFDLNEYGIS | VIYADGRRTYYADSVK | GTNAGTFDQ | 170 pM | 6 of 6 | 0 of 18 |
| GFDLNEYGIS | VIYADGQRTAYDDSVK | GQVAGTFDS | 200 pM | 6 of 6 | 1 of 18 |